In the experiment the target is Serine protease 1 (Homo sapiens, UniProt P07477). Kind of experiment: In vitro inhibitory activity against trypsin.

By UniProt entry, the sequences of proteins in these tests, tags left out.
UniProt P07477, whole entry: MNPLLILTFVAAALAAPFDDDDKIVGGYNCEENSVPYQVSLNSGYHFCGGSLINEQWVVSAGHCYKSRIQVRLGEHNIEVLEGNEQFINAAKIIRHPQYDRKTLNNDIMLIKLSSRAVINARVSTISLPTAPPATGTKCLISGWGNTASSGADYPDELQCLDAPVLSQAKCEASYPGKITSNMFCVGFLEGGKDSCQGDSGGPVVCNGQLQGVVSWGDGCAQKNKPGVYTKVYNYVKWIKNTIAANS

As a reminder, the IC50 is the concentration that inhibits the measured activity by half. The molecule `N=C(N)c1cccc(OC(C(=O)Nc2ccc(N3CCOCC3)c(F)c2)c2ccccc2)c1` (stereo unspecified) returned an IC50 above 10 µM.
